This passage reports Potency and activity change, negative = cytotoxicity results from PubChem BioAssay (Tox21).

Only a part is listed here, and it is no random draw. Inconclusive results are not listed. Where a call stands in place of a potency, no number is given. The source made the active and inactive calls. Calls follow the shape of the full dose curve.
Potency is read from the fitted curve at half-maximal effect.

This experiment can be described thus: p53 small molecule agonists, cell-based qHTS assay with human liver microsomes: qHTS cell viability counter screen (AID 1963579). Also: nearly all actives have a fitted effect of over 45% in size. The conditions noted are these: p53RE-bla HCT-116 viability, ATP luminescence, 16 h, HLM; series mostly up to 66 µM. The source says: National Center for Advancing Translational Sciences [NCATS]
Division of Preclinical Innovation [DPI]
U.S. Environmental Protection Agency [EPA]
National Institutes of Environmental Health Sciences [NIEHS]
National Toxicology Program [NTP]
U.S. Food and Drug Administration [FDA]
p53, a tumor suppressor protein, is activated following cellular insult, including DNA damage and other cellular stresses. The activation of p53 regulates cell fate by inducing DNA repair, cell cycle arrest, apoptosis, or cellular senescence. The activation of p53, therefore, is a good indicator of DNA damage and other cellular stresses. […] The activation of the reporter gene under culture conditions can be detected by fluorescence intensity. This cell line was used to screen the Tox21 10K compound library in the condition of presence of human liver microsomes and to identify agonists that activate the p53 signaling pathway after in vitro metabolic activation (Ooka et al., Archive of Toxicology 96:1975-1987, 2022).
Tox21 Assay Protocol Summary:
The p53RE-bla cells were dispensed at 4,000cells/3ul/well in 1536-well black-clear bottom plates. After the assay plates were incubated at 37 C, 5% CO2 incubator for 5 hours, 23 nL of compounds dissolved in DMSO, positive controls or DMSO only was transferred to the assay plate. Following compound addition, 3 uL of human liver microsomes (XenoTech, Kansas City, KS) at final concentration of 0.5 mg/mL and 1uL of B-Nicotinamide adenine dinucleotide 2'-phosphate (NADPH) at final concentration of 0.5 mg/mL were transferred to the assay plate. The plates were incubated at 37 C for 16 hours. 1 uL of LiveBLAzer detection mixture was added to each well and the plates were incubated at room temperature in the dark for 2 h. Fluorescence intensity at 460 and 530 nm emission and 405 nm excitation were measured by an Envision plate reader. For cell viability readout that measures cytotoxicity, 4 ul/well of CellTiter-Glo reagent was added into the assay plates using a Flying Reagent Dispenser. After 30 min incubation at room temperature, the luminescence intensity in the plates was measured using a ViewLux plate reader.
For orientation: Quantitative high-throughput screening tests each substance at several concentrations.
For the compound `CCCCO[P+](=O)OCCCC`, the Potency entry was “inactive”. On the same count and under the same terms, under `CN(N=O)C(=N)N[N+](=O)[O-]` stands “inactive”; under `CN(C(=O)Cc1cccc2occc12)[C@H]1CC[C@@]2(CCCO2)C[C@@H]1N1CCCC1`, “inactive”.

`CCC(C)(OOC(C)(C)C)OOC(C)(C)C`: the activity change, negative = cytotoxicity is inactive: -9.49% [at 13.5 µM]. On to `O=[P+](Oc1ccccc1)Oc1ccccc1`, for which the Potency entry was “inactive”. Still for that read-out and setting: next, `O=P(Cl)(Cl)c1ccccc1`: “inactive”; `O=C1C2CC=CCC2C(=O)N1SC(Cl)(Cl)C(Cl)Cl` (stereo not drawn): “inactive”; `O=C(Cl)Oc1ccccc1`: “inactive”.

With `ClP(Cl)c1ccccc1`, the Potency entry is “inactive”. On the same count and under the same terms, under `Cc1cc([N+](=O)[O-])c(O)c([N+](=O)[O-])c1` stands “inactive”. On the same count and under the same terms, next, `O=[N+]([O-])c1ccc([N+](=O)[O-])cc1`: “inactive”.

Take `COP(=S)(Cl)OC`: the Potency entry is “inactive”. On the same count and under the same terms, under `CN(C(=O)Cc1ccc(Cl)c(Cl)c1)[C@H]1CC[C@@]2(CCCO2)C[C@@H]1N1CCCC1` stands “inactive”; under `CCNC(C)Cc1ccc2c(c1)OCO2` (stereo not drawn), “inactive”; under `Cc1cc([N+](=O)[O-])cc([N+](=O)[O-])c1O`, “inactive”. Same read-out and setting: next, `CN(C(=O)Cc1ccccc1)[C@H]1CC[C@@]2(CCCO2)C[C@@H]1N1CCCC1`: “inactive”. On the same count and under the same terms, next, `O=C(Cl)OCCOC(=O)Cl`: “inactive”; `CC(C)CCCCCCCOP(OCCCCCCCC(C)C)Oc1ccccc1`: “inactive”; `O=[As]c1ccccc1` (stereo not drawn): active: 1.29 µM.

Regarding `O=[N+]([O-])c1ccc(S(=O)(=O)O)c([N+](=O)[O-])c1`, the Potency entry is “inactive”.

On to `CCCCC(CC)CO[P+](=O)OCC(CC)CCCC` (stereo not drawn), for which the Potency result was “inactive”.

For the compound `CCCCOP(OCCCC)OCCCC`, the Potency result was “inactive”.

Regarding `COC(=O)Cl`, the Potency entry is “inactive”. The same measure, in the same setting: under `O=P(Cl)(Oc1ccccc1)Oc1ccccc1` stands “inactive”; under `CC(C)OP(=S)(OC(C)C)SCCNS(=O)(=O)c1ccccc1`, “inactive”. Same read-out and setting: next, `CCOC(=O)Cl`: “inactive”; `CCOP(=S)(CC)Sc1ccccc1` (stereo not drawn): “inactive”; `NC(=O)Nc1ccc([As](=O)(O)O)cc1`: “inactive”.
